Assay results: US20070100561A1, “Crystals of DPP-IV” (priority 2002, published 2007)

By UniProt entry, the sequences of proteins in these tests, tags left out. Residues count along the entry.
UniProt P27487, 31-766: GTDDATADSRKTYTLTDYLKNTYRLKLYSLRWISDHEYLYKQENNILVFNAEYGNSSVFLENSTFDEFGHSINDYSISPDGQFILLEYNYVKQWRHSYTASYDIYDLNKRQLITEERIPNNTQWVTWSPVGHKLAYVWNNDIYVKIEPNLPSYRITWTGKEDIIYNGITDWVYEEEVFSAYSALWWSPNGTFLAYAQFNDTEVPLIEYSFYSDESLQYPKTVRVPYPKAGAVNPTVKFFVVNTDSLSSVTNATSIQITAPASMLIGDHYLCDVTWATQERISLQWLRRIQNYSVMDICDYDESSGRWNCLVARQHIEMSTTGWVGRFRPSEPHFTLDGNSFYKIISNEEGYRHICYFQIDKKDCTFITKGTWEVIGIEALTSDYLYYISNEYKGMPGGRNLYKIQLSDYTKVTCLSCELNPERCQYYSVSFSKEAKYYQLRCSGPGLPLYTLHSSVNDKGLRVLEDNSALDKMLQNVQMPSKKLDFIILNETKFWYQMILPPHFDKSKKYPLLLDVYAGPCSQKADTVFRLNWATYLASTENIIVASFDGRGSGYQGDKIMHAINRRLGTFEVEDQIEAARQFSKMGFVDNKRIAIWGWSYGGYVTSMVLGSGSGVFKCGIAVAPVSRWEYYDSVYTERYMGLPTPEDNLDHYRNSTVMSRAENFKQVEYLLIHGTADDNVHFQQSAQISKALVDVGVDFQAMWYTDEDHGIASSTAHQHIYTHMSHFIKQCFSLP

Assays:
DPP-IV = DPP-IV (Homo sapiens, UniProt P27487); experiment: Biacore surface plasmon resonance binding to immobilized DPP-IV
[1] = molecular target: sDPP-IV (soluble extracellular domain of human dipeptidyl peptidase IV) (Homo sapiens, UniProt P27487); experiment: DPP-IV activity assay, fluorescence of products from Ala-Pro-7-amido-4-trifluoromethylcoumarin

CC[C@H](C)[C@H](N)C(=O)N1CCC[C@H]1C(=O)N[C@H](C(=O)O)[C@@H](C)CC [Ile-Pro-Ile, reference compound]
Kd (DPP-IV): 3.8 µM
Ki [1]: 4.63 µM
